# Measurements reported in PubChem BioAssay AID492947 (National Center for Advancing Translational Sciences (NCATS), 2010).
# This is a selection; strong and weak results do not stand in their true shares. Active and inactive are the calls of the source. The call rests on the fitted dose curve; in most records, active means well fitted activation curve with a large enough effect; inconclusive means small, poorly fitted or top-dose-only effect; inactive means flat fitted curve, though single readings scatter.
# Biological target: Beta-2 adrenergic receptor (Homo sapiens) (UniProt P07550)
# Assay: qHTS assay of beta-arrestin-biased ligands of beta2-adrenergic receptor;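 further: 0% = DMSO controls and full agonism = EC100 isoproterenol or metaproterenol; nearly all actives have a fitted effect of over 65% in size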
# Details: beta-arrestin recruitment to beta2AR, cell-based reporter; at 46.1 µM (top of the series)
# Excerpt: NIH Molecular Libraries Probe Production Network [MLPCN]
# NIH Chemical Genomics Center [NCGC]
# PI: Bryan Roth and Bob Lefkowitz
# The concept of biased agonism is an emerging concept of molecular pharmacology which proposes that seven transmembrane receptors (7TMRs) or G protein-coupled receptors (GPCRs), exist in multiple signaling conformations and complexes and that ligands (either agonists or antagonists) can induce signaling biased responses for distinct signal transduction cascades.
# Furthermore, accumulating evidence over the last decade has drawn attention to a novel function of beta-arrestins as signal transducers that scaffold various signaling molecules upon activation of 7TMRs. […] This beta-arrestin-biased signaling presumably leads to distinct physiological outcomes from those by G protein activation.
# Additionally, the active receptor conformations which […] on this beta-arrestin signaling are likely different from those activating G protein signaling
# The goal of this screening project will be to discover and optimize novel beta-arrestin-biased ligands for beta2-AR signaling. A luminescent cell-based assay for beta2-AR-mediated agonism, known as the Tango assay, has been validated in which ligand binding of a recombinant beta2-AR and subsequent recruitment of a recombinant beta-arrestin lead to the release of the transcriptional activator tTA, which upregulates transcription of a tTA-responsive luciferase gene. […] Compounds were screened as a concentration-titration series that ranged from 46 microM to 0.6 nM.
# NCGC Assay Protocol Summary:
# Tango cells were dispensed into white, solid, tissue-culture-treated 1536-well plates at 1500 cells/well in DMEM, containing 1% fetal bovine serum (FBS). Then, 23 nL of compounds or DMSO were delivered to each well using a pin tool. Plates were incubated at 37 degrees C, 5% CO2 for 18 hr. Then 2.5 uL luminescent substrate mix (in-house prepared: 150 mM Tris-Cl, pH 7.6, 3 mM MgCl2, 1% Triton X-100, 5 mM DTT, 0.5 mM CoA, 0.15 mM ATP, 0.44 mM D-luciferin, final concentrations) was added to each well. Plates were then incubated for 15 minutes at room temperature, and subsequently measured on a ViewLux plate reader for luminescent signal using a clear filter with a 10 second exposure and 2x binning. The %Activity was determined from the corrected luminescence values.
# Concentration-response curves were fitted to the signals arising from the resulting luminescence. The concentration-effect curves were then classified based on curve quality (r2), response magnitude and degree of measured activity, and compounds were subsequently categorized based on their curve class.
# Keywords: biased agonism, beta2-AR, beta-arrestin, GPCR, 7TMR, Tango, luminescence, MLSMR, MLPCN, NIH Roadmap, qHTS, NCGC
row,Structure (SMILES),activation
1,O=C(O)COc1ccc([As](=O)(O)O)cc1[N+](=O)[O-],inactive: 4.41%
2,Nc1ccccc1[As](=O)(O)c1ccccc1,inactive: -0.343%
3,CS(=O)(=O)c1cc([N+](=O)[O-])c2no[n+]([O-])c2c1,inactive: -0.302%
4,O=P(Nc1nccs1)(Oc1ccccc1)Oc1ccccc1,inactive: -0.0984%
5,O=P(Nc1nccs1)(c1ccccc1)c1nc2ccccc2s1 (stereo not drawn),inactive: -0.194%
6,CCOP1(=S)c2c(C)nn(CCC#N)c2N=C(c2ccccc2F)N1C (stereo not drawn),inactive: 0.135%
7,O=[N+]([O-])c1ccc2c(c1)nnn2O,inactive: 3.37%
8,CCOP1(=S)c2c(C)nn(CCC#N)c2N=C(c2ccc(F)cc2)N1C (stereo not drawn),inactive: -0.0252%
9,CN(C(=O)Cc1ccccc1)[C@@H]1CC[C@]2(CCCO2)C[C@H]1N1CCCC1,inactive: -0.165%
10,N#CCCN(C(=O)COC(=O)C(O)(c1ccccc1)c1ccccc1)c1ccc(F)cc1,inactive: -0.272%
11,NC(=O)Nc1ccc([As](=O)(O)O)cc1,inactive: -0.343%
12,O=[As](O)(c1cccc(O)c1)c1cccc(O)c1,inactive: -0.782%
13,CS(=O)(=O)c1ccc(Cl)c(NC(=O)COC(=O)C(O)(c2ccccc2)c2ccccc2)c1,inactive: 0.152%
14,O=[As](O)(O)c1cccnc1,inactive: 0.202%
15,COc1cc(C(=O)NCC2(N3CCOCC3)CCCCC2)cc(Cl)c1OC(C)C,inactive: -0.126%
16,O=C(OC1CN2CCC1CC2)c1ccc(Cl)cc1 (stereo not drawn),inactive: 0.0676%
17,CCOP(=O)(Nc1cccc2ccccc12)OCC,inactive: -1.99%
18,COc1cc(C2NCCC3(OCCO3)C2(C)C)cc(OC)c1OC (stereo not drawn),inactive: -0.22%
19,CCCOP(=S)(Nc1nc(N)cc(=O)[nH]1)OCCC,inactive: 0.396%
20,Nc1cccc2c([As](=O)(O)O)cccc12,inactive: 0.261%
21,Cc1ccc(NCCc2c([N+](=O)[O-])cc([N+](=O)[O-])cc2[N+](=O)[O-])cc1,inactive: -0.139%
22,CC(C)(C)C(=O)NC(Sc1ncccn1)C(Cl)(Cl)Cl (stereo not drawn),inactive: -1.16%
23,Clc1n[nH]nc1-c1nn[nH][15n]1,inactive: -0.061%
24,CCOP(=O)(Nc1ccc(C)cn1)OCC,inactive: 0.282%
25,CCOP(=O)(NC(=NC(C)c1ccccc1)NC(C)c1ccccc1)OCC (stereo not drawn),inactive: 0.27%
26,CCC1=CC2Cc3nc4ccc(Cl)cc4c(N)c3C(C1)C2 (stereo not drawn),inactive: 0.0553%
27,O=P1(Nc2ccccn2)COc2ccccc2OC1,inactive: 0.386%
28,O=[As](O)(c1ccccc1Br)c1ccccc1Br,inactive: -0.646%
